Reference: the Kinase Knowledgebase extract (Sharma et al. 2016)
pIC50: −log10 of the molar value.

Chains of the proteins cited; added tags and fusions are not shown. Lines headed by an entry give the natural chain unless they say otherwise; changes in a name come on top.
UniProt P42336, whole entry, looked up: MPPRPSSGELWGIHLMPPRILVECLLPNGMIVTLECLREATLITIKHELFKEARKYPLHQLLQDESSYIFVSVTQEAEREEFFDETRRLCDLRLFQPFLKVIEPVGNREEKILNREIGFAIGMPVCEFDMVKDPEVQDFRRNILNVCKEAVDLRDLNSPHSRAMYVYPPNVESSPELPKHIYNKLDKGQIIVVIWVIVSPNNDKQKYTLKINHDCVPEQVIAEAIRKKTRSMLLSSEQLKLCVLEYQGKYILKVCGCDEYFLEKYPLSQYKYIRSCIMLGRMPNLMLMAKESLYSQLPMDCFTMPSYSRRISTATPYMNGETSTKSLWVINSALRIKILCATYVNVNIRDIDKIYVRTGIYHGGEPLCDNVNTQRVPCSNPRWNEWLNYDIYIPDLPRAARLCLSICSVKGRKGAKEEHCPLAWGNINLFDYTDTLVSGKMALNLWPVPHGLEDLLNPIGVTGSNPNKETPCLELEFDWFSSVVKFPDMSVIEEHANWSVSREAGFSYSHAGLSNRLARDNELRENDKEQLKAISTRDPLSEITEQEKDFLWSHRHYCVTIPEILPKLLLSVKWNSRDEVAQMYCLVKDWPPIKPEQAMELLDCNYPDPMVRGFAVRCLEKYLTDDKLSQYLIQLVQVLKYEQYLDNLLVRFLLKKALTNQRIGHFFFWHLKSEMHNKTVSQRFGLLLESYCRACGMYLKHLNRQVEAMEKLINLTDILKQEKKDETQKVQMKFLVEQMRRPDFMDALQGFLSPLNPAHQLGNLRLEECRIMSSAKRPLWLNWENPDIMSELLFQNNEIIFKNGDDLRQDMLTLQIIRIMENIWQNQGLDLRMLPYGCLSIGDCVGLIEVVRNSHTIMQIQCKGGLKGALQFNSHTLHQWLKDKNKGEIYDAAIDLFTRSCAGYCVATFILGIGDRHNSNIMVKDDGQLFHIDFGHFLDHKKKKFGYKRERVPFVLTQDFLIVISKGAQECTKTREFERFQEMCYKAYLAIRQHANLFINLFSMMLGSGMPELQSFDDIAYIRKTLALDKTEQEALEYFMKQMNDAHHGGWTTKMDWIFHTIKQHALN
UniProt O00329: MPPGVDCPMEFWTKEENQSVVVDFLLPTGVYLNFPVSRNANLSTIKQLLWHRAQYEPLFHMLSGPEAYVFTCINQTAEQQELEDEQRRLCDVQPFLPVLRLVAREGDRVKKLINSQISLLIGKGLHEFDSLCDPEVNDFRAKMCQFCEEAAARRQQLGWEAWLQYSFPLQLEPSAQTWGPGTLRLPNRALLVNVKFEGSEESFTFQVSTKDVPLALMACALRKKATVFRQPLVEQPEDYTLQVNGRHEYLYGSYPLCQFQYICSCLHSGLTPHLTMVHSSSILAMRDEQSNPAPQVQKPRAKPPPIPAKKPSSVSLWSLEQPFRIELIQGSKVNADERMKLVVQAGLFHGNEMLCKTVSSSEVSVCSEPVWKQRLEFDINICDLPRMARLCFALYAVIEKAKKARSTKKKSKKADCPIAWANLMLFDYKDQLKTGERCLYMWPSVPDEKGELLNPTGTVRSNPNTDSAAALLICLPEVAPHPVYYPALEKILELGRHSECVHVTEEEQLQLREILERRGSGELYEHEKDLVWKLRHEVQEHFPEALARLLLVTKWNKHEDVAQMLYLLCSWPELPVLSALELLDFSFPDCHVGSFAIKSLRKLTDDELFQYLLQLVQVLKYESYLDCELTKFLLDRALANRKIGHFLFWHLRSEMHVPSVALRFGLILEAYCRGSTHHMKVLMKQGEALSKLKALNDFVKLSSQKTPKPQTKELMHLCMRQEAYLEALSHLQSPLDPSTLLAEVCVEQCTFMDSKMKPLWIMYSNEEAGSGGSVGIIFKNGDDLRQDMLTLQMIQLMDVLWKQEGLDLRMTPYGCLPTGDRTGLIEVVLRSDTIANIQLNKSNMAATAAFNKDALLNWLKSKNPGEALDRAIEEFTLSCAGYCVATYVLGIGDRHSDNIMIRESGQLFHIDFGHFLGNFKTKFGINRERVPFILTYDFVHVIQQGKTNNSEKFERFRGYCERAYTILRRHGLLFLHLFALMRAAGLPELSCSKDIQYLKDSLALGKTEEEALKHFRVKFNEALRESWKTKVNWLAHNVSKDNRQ

Assays:
[1] = molecular target: PIK3CA (human) (UniProt P42336); assay: Assessment of PIK3CA Kinase Activity
[2] = molecular target: PIK3CD (Human) (UniProt O00329); assay: Assessment of PIK3CD Kinase Activity

pIC50 [1]: > 7.00
pIC50 [2]: 6.00 to 7.00
Structure (SMILES): COc1cccc2c1nc(C(F)F)n2-c1nc(-c2ccc(NS(=O)(=O)CCN(C)C)cc2)nc(N2CCOCC2)n1
